Literature values in patent publication US20190374647A1 (published 2019).

Settings: cited from earlier work

O=S(=O)(O)c1ccc(O)cc1
LogP (acid): −1.624 | LogD (acid)- at pH = 5.5 (pH 5.5): −5.12
